Experimental findings from article PMC13441969, “Zero-shot design of drug-binding proteins via neural iterative selection−expansion” (Nature, 2026) are described below.

The nature of this assay: Fluorescence polarization/anisotropy of exatecan titrated with protein. Conditions: [exatecan] = 50 nM; PBS pH 7.4, 0.1% w/v PEG-8000; single-site (1:1) binding model.

Regarding human serum albumin [HSA], the Kd (as a rule, a measure of binding affinity in units of concentration) turned out to be 43 ± 3 µM.
